# Source: PubChem (National Center for Advancing Translational Sciences (NCATS))
# p53 reactivation: mutant p53 re-activation in reporter cells; AID 504706; H1299 p53-A138V BP100-luciferase reporter, luminescence, 24 h; hit rate 0.063% among 320,000; Potency, µM (titrated, usually from 92.2 µM), inactives show at the highest dose activity change, positive = activation, usual class: activators; note: potency is the fitted concentration of half-maximal effect; % of control where 0% means no effect; nearly all actives have a fitted effect of over 45% in size
#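 p53-null H1299 cells stably carrying temperature-sensitive p53-A138V and a BP100-luciferase reporter were pinned with compounds (4-point, 1:5 series) and held 24 hrs at 37 deg C. Luminescence was read 10 min after detection reagent.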
# miR-21 reporter: miR-21 reporter, rising signal. 340,000 tested, under 10 active. Potency, µM (highest dose often 38.3 µM), for the others: at the highest dose reporter change, positive = more light. HeLa miR-21 FLuc reporter, luciferase, 48 h. AID 2288; active = well fitted rising curve with a large enough effect; inconclusive = small, poorly fitted or top-dose-only effect; inactive = no such curve, though single readings can be large or run the other way;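 further: % of control where 0% means no effect; miR-21 action dims this reporter so a rising signal means less miR-21 action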
#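 Luminescence from a firefly luciferase reporter carrying a miR-21 binding site downstream, stably expressed under a CMV promoter in HeLa cells that make miR-21 endogenously, reports miRNA modulation after 48 h compound exposure up to approximately 40uM final.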
# Anesthetic bind: binds horse apoferritin like a general anesthetic. Potency, µM (highest dose often 77.5 µM), for the others: top-dose activity change, negative = displacement, hits mostly inhibitors. AID 485281. hit rate 0.074% among 350,000. P02791. apoferritin/1-aminoanthracene competitive binding, fluorescence; note: potency is the fitted concentration of half-maximal effect; % is set by controls: 0 for no effect and ±100 for the full control effect; nearly all actives have a fitted effect of over 20% in size
#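 In PBS, apoferritin at 10 uM is loaded with 1-AMA from a 50% saturated solution. After 10 min of compound exposure at ambient temperature, reduced 535 nm fluorescence indicates probe displacement.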
# BRCA1 expr act: increases BRCA1 expression | hit rate 1.1% among 380,000 | Potency, µM (titrated, usually from 46.1 µM), for inactives: at the highest dose activation, hits mostly activators | AID 624202 | MCF7-BRCA1-FFLuc reporter, luminescence, 48 h; response scale: scaled: vehicle 0%, 10 µM genistein 100%; note: potency is the fitted concentration of half-maximal effect; nearly all actives have a fitted effect of over 80% in size
#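 Reporter cells (MCF7, BRCA1 promoter-firefly luciferase) received library compounds across a concentration series for 48 h. End-point luminescence was measured and concentration-effect curves derived after normalization.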
# The depositor's hits bear a star; ? = inconclusive; · = no result. An excerpt weighted towards active compounds, which were near 1.1% of everything screened. Calls come from the whole dose curve; as a rule, active = well fitted curve in the direction sought with a large enough effect; inconclusive = small, poorly fitted or top-dose-only effect, or another doubt; inactive = no such curve, though single readings can be large; an effect the other way counts as inactive or inconclusive.
entry | SMILES | p53 reactivation | miR-21 reporter
1 | O=C(Cc1ccc(Br)cc1)N1CCCCCC1 | ? | -51.5%
2 | CCOc1ccccc1NC(=O)Cn1c(=O)n(-c2ccccc2)c(=O)c2c1c1cc(C)ccc1n2C | · | -1.2%
3 | Cc1ccc(Cc2nc3ccccc3nc2SCC(=O)Nc2ccc3c(c2)OCO3)cc1 | · | 2.8%
4 | COc1ccc(-c2nc3scc(CCNS(=O)(=O)c4ccc(C)cc4)n3n2)cc1 | · | 6.4%
5 | Cc1ccc(Cl)c(N/C=C/C(=O)c2ccccc2)c1 | 39.8µM* | -40.6%
6 | O=C(Nc1ccccc1)OCc1cc(-c2ccccc2Cl)on1 | ? | -70.9%
7 | O=C(Nc1cccc(O)c1)c1cc(-c2ccccc2Cl)on1 | ? | 29.1%
8 | O=C1CN(c2ccccc2)C(=S)N1C(=O)c1ccc(Br)cc1 | -1.9% | -52.3%
9 | O=C(Cc1cnn(-c2ccccc2)c1)c1ccc(O)c(O)c1O | 25.8% | -38.2%
10 | Cc1ccsc1CNCc1cc(Cl)ccc1O | 19.4% | ·

entry | Anesthetic bind | BRCA1 expr act
1 | ? | 10µM*
2 | -3.0% | 27.0%
3 | -9.9% | 1.8%
4 | -4.9% | ·
5 | -19.9% | 50.2%
6 | ? | 8.91µM*
7 | -14.0% | 6.8%
8 | -9.9% | 3.16µM*
9 | -17.7% | 5.62µM*
10 | · | -0.3%

# Three entries already listed, sorted by SMILES length, lowest first.
entry | SMILES | p53 reactivation | miR-21 reporter
5 | Cc1ccc(Cl)c(N/C=C/C(=O)c2ccccc2)c1 | 39.8µM* | -40.6%
6 | O=C(Nc1ccccc1)OCc1cc(-c2ccccc2Cl)on1 | ? | -70.9%
3 | Cc1ccc(Cc2nc3ccccc3nc2SCC(=O)Nc2ccc3c(c2)OCO3)cc1 | · | 2.8%

entry | Anesthetic bind | BRCA1 expr act
5 | -19.9% | 50.2%
6 | ? | 8.91µM*
3 | -9.9% | 1.8%

# 4 compounds already listed, arranged by the value under miR-21 reporter, ascending:
no.	structure	p53 reactivation	miR-21 reporter	Anesthetic bind
6	O=C(Nc1ccccc1)OCc1cc(-c2ccccc2Cl)on1	?	-70.9%	?
5	Cc1ccc(Cl)c(N/C=C/C(=O)c2ccccc2)c1	39.8µM*	-40.6%	-19.9%
3	Cc1ccc(Cc2nc3ccccc3nc2SCC(=O)Nc2ccc3c(c2)OCO3)cc1	·	2.8%	-9.9%
7	O=C(Nc1cccc(O)c1)c1cc(-c2ccccc2Cl)on1	?	29.1%	-14.0%

# Going on with the list:
entry | SMILES | p53 reactivation | miR-21 reporter
11 | C/C(N)=C(/C#N)C(=O)COC(=O)C1CCC(C(C)(C)C)CC1 (stereo unspecified) | -6.9% | 5.0%
12 | C/C(N)=C(/C#N)C(=O)COC(=O)CC1CCCC1 | -1.6% | -8.6%
13 | C/C(N)=C(/C#N)C(=O)COC(=O)CSc1ccccc1 | 0.8% | -8.9%
14 | C/C(N)=C(/C#N)C(=O)COC(=O)CC12CC3CC(CC(C3)C1)C2 | 0.5% | -8.5%
15 | O=C(NCc1ccco1)C1CCN(S(=O)(=O)c2cccc([N+](=O)[O-])c2)CC1 | 0.8% | 0.0%
16 | CCOC(=O)c1ccc(N2CCN(c3cccc(Cl)c3)CC2)c(NC(=O)Nc2ccc(OC)cc2OC)c1 | · | -5.3%
17 | COc1cc2c(C#CCCCO)c(-c3ccsc3)oc(=O)c2cc1OC | -2.4% | ·
18 | O=C(/C=C/c1ccc(Br)cc1)c1ccco1 | ? | -4.5%
19 | O=C(/C=C/C=C/c1ccccc1)c1ccco1 | 22.4µM* | -36.6%
20 | Cc1ccc(OC(=O)c2ccc(S(=O)(=O)N(C)C)cc2)c(-n2nc3ccccc3n2)c1 | ? | -40.2%

entry | Anesthetic bind | BRCA1 expr act
11 | 35.5µM* | -25.6%
12 | ? | 6.2%
13 | -23.1% | 0.6%
14 | 17.8µM* | -0.3%
15 | -7.0% | -4.9%
16 | -6.4% | ·
17 | · | -2.2%
18 | -9.8% | -9.5%
19 | -1.7% | 95.9%
20 | -17.4% | 12.6µM*

# Additional results:
entry | SMILES | p53 reactivation | miR-21 reporter
21 | CN(CC1CCOCC1)C(=O)CC1C(=O)NCCN1CC(c1ccccc1)c1ccccc1 (stereo unspecified) | 10.9% | -4.4%
22 | COc1cc(C(c2c(C)[nH][nH]c2=O)c2c(C)[nH][nH]c2=O)ccc1OCc1ccc([N+](=O)[O-])cc1 | ? | -45.3%
23 | COc1ccc(OCc2cc(C(=O)NC(C)Cc3cnccn3)no2)c(Cl)c1 (stereo unspecified) | ? | -37.2%
24 | COc1ccc(OCc2cc(C(=O)N(C)Cc3cnccn3)no2)c(Cl)c1 | 22.9% | -58.2%
25 | CN(CCc1ccccc1)C(=O)c1cc(COc2ccc(F)cc2Cl)on1 | 13.2% | -41.1%
26 | COc1ccc(OCc2cc(C(=O)NCC3CCCCO3)no2)c(Cl)c1 (stereo unspecified) | ? | -50.3%
27 | CN(C(=O)COc1ccc(Cl)cc1Cl)C1(C)CCS(=O)(=O)C1 (stereo unspecified) | -3.7% | ·
28 | CCOc1ccc(NC(=S)N2CCC(C(=O)c3ccc(OC)cc3)CC2)cc1 | · | ·
29 | Cc1cc(C)c(C(=O)CN2C(=O)NC3(CCCCC3)C2=O)cc1C | 1.8% | -19.5%
30 | Cc1ccc(C(=O)CN2C(=O)NC3(CCCCCC3)C2=O)c(C)c1 | 17.4% | ·

entry | Anesthetic bind | BRCA1 expr act
21 | -4.6% | -5.0%
22 | ? | 3.16µM*
23 | -7.9% | 11.2µM*
24 | -21.4% | 8.91µM*
25 | -17.0% | 12.6µM*
26 | ? | 12.6µM*
27 | · | -8.2%
28 | · | -3.0%
29 | -10.9% | ?
30 | · | 6.31µM*

# Next section
entry | SMILES | p53 reactivation | miR-21 reporter
31 | Cc1ccc(NC2CCCCC2NS(=O)(=O)c2ccccc2)c(C)c1 (stereo unspecified) | 11.9% | 14.2%
32 | Cn1ccsc1=NC(=O)c1ccc(S(=O)(=O)C(F)F)cc1 | 17.5% | -73.4%
33 | CN(C)c1ccc(C(=O)N=c2sccn2C)cc1[N+](=O)[O-] | ? | -43.9%
34 | Cn1ccsc1=NC(=O)c1ccc(Cl)cc1 | 5.9% | -51.6%
35 | CC1CC(C)CN(C(=O)C2CCN(S(=O)(=O)N3CCC4(CC3)OCCO4)CC2)C1 (stereo unspecified) | 3.7% | -1.9%
36 | C/C(=C\C(=O)O)C(=O)Nc1nccs1 | -4.5% | -1.2%
37 | C/C(=C\C(=O)Nc1nccs1)c1ccccc1 | · | -35.1%
38 | CCOC(=O)C(=O)/C(C#N)=C/Nc1ccccc1 | -0.9% | -1.6%
39 | CCOC(=O)/C(C#N)=C/Nc1ccccc1OC | ? | -81.0%
40 | COc1cncc(C#Cc2ccccn2)c1 | · | ·

entry | Anesthetic bind | BRCA1 expr act
31 | -8.7% | -18.4%
32 | -7.4% | 12.6µM*
33 | -8.2% | 11.2µM*
34 | -12.7% | 50.8%
35 | 6.3% | 0.0%
36 | -9.6% | -5.0%
37 | -18.4% | 8.91µM*
38 | -16.6% | 0.8%
39 | 77.9% | 2.24µM*
40 | · | 4.47µM*

# (further entries)
entry | SMILES | p53 reactivation | miR-21 reporter
41 | O=C(Nc1cc(F)ccc1F)c1cnn2c1NC(=C1CC1)C=C2C(F)F | · | ·
42 | O=C1/C(=C/c2cccnc2)CCc2c1[nH]c1ccccc21 | 12.6% | 15.2%
43 | CC(C)C/C=C1\CCc2c([nH]c3ccccc23)C1=O | 10.6% | -41.1%
44 | O=C(c1cccc(Cl)c1)n1nc(-c2cccnc2)nc1NCc1ccccc1 | · | -0.5%
45 | Cc1ccc2c(C(=O)CN3CC(C)CC(C)C3)c(C)[nH]c2c1 (stereo unspecified) | -5.5% | -3.6%
46 | c1ccc(OCCNc2ccn3nc(-c4ccco4)cc3n2)cc1 | · | ·
47 | c1ccc(OCCNc2ccn3nc(-c4cccs4)cc3n2)cc1 | · | ·
48 | Cc1ccsc1/C=N/N=C/c1sccc1C | · | -52.7%
49 | COc1ccc(Cn2c(=O)c3oc4ccccc4c3n(CC(=O)Nc3c(C)cccc3C)c2=O)cc1 | · | -0.7%
50 | O=[N+]([O-])c1cccc(NC(=S)N2CCCC2)c1 | ? | -7.3%

entry | Anesthetic bind | BRCA1 expr act
41 | · | -11.3%
42 | ? | ?
43 | -17.1% | 8.91µM*
44 | 6.0% | ·
45 | 6.7% | ·
46 | · | 14.1µM*
47 | · | 0.0%
48 | ? | 2.24µM*
49 | -1.5% | ·
50 | -6.7% | 4.3%

# Next entries:
entry | SMILES | p53 reactivation | miR-21 reporter
51 | O=C(Nc1cccc([N+](=O)[O-])c1)NC1CCCCCCC1 | 13.6% | 1.3%
52 | O=C(Nc1cccc([N+](=O)[O-])c1)C(=O)N1CCCCC1 | 8.6% | -55.0%
53 | O=C(CNC1CCCCC1)Nc1cccc([N+](=O)[O-])c1 | · | ·
54 | COCC(=O)N[C@@H]1c2ccccc2CC[C@@H]1OCc1ccccc1 | -0.9% | ·
55 | CCCc1ccc(C(=O)/C=C/N(C)C)cc1 | 9.2% | -29.6%
56 | CCC1Oc2ccc(C)cc2N(CC(=O)N2CCN(c3ccccc3OC)CC2)C1=O (stereo unspecified) | · | -16.0%
57 | COc1ccc2c(c1)O/C(=C\c1ccccc1C)C2=O | ? | -36.1%
58 | CC(C)Oc1cccc(C(=O)C2CCCN(C(=O)CCc3cnn(C)c3)C2)c1 (stereo unspecified) | 6.5% | -32.6%
59 | CCCSc1nnc2[nH]c(=O)cc(C)n12 | · | -2.2%
60 | Cc1cc(=O)[nH]c2nnc(-c3ccc(Br)cc3)n12 | 6.6% | -23.3%

entry | Anesthetic bind | BRCA1 expr act
51 | ? | 6.31µM*
52 | -6.4% | 4.47µM*
53 | · | 38.0%
54 | · | -0.5%
55 | -23.4% | 12.6µM*
56 | 4.9% | ·
57 | -5.3% | 12.6µM*
58 | -14.1% | ?
59 | -4.2% | ·
60 | 1.9% | 3.98µM*
